Laboratory results taken from patent publication US20240189318A1, “THERAPEUTIC REGIMENS OF AN INHIBITOR OF THE ENZYMATIC ACTIVITY OF BRG1 AND BRM” (FOGHORN THERAPEUTICS INC., priority 2021, published 2024).

By UniProt entry, the sequences of proteins in these tests, tags left out. Where a name states a change or a piece, a line headed by the entry shows the natural chain unless it says otherwise.
UniProt Q9UNQ0: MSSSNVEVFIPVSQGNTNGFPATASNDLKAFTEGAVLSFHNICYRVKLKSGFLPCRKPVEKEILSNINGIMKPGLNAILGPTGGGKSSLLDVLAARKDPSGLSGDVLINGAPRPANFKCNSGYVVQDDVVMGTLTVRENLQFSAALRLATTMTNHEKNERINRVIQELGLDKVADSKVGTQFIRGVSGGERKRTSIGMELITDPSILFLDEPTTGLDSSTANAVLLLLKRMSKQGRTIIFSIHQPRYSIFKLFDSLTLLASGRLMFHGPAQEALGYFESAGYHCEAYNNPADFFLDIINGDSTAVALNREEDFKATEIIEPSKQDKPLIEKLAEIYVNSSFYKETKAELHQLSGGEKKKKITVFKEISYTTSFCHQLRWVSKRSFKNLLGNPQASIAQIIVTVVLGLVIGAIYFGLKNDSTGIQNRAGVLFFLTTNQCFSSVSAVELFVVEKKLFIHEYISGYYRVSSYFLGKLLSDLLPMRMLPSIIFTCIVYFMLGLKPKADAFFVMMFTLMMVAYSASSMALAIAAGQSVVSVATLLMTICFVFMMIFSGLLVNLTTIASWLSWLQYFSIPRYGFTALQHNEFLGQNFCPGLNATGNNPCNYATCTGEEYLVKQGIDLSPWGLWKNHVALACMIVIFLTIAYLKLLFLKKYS
UniProt P08183, whole entry: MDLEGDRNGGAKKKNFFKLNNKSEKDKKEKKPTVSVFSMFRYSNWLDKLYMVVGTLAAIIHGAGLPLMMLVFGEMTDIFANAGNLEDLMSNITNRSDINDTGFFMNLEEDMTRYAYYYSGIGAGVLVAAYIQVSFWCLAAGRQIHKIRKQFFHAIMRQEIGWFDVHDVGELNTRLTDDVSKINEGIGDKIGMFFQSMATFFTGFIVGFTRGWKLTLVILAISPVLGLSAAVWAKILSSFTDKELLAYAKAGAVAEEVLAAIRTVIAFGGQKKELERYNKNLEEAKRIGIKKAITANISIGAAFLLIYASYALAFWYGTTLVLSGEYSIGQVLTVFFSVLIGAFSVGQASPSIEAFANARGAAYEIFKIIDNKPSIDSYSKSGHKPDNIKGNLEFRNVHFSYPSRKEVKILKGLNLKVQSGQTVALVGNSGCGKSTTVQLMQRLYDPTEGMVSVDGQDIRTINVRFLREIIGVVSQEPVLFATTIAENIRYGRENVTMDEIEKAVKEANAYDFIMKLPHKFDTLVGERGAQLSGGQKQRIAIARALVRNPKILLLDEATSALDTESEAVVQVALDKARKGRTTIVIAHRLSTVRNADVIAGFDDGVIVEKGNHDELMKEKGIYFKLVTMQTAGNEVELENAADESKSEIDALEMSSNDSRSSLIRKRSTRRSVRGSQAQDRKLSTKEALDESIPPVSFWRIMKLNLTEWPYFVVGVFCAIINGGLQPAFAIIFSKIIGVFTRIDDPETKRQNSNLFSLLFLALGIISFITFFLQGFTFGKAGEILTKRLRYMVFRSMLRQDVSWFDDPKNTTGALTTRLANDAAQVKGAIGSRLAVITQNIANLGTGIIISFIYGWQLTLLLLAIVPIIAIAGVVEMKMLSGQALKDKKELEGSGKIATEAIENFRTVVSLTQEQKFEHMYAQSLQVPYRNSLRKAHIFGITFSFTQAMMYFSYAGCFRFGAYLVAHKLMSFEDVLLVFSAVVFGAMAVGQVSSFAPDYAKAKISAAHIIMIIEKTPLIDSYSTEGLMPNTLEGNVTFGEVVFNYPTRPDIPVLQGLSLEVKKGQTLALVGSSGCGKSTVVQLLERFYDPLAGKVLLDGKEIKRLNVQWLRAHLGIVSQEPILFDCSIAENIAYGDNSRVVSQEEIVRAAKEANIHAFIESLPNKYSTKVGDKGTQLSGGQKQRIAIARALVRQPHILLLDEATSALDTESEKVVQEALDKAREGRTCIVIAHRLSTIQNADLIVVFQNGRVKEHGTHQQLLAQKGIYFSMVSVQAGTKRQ
UniProt P51532, whole entry: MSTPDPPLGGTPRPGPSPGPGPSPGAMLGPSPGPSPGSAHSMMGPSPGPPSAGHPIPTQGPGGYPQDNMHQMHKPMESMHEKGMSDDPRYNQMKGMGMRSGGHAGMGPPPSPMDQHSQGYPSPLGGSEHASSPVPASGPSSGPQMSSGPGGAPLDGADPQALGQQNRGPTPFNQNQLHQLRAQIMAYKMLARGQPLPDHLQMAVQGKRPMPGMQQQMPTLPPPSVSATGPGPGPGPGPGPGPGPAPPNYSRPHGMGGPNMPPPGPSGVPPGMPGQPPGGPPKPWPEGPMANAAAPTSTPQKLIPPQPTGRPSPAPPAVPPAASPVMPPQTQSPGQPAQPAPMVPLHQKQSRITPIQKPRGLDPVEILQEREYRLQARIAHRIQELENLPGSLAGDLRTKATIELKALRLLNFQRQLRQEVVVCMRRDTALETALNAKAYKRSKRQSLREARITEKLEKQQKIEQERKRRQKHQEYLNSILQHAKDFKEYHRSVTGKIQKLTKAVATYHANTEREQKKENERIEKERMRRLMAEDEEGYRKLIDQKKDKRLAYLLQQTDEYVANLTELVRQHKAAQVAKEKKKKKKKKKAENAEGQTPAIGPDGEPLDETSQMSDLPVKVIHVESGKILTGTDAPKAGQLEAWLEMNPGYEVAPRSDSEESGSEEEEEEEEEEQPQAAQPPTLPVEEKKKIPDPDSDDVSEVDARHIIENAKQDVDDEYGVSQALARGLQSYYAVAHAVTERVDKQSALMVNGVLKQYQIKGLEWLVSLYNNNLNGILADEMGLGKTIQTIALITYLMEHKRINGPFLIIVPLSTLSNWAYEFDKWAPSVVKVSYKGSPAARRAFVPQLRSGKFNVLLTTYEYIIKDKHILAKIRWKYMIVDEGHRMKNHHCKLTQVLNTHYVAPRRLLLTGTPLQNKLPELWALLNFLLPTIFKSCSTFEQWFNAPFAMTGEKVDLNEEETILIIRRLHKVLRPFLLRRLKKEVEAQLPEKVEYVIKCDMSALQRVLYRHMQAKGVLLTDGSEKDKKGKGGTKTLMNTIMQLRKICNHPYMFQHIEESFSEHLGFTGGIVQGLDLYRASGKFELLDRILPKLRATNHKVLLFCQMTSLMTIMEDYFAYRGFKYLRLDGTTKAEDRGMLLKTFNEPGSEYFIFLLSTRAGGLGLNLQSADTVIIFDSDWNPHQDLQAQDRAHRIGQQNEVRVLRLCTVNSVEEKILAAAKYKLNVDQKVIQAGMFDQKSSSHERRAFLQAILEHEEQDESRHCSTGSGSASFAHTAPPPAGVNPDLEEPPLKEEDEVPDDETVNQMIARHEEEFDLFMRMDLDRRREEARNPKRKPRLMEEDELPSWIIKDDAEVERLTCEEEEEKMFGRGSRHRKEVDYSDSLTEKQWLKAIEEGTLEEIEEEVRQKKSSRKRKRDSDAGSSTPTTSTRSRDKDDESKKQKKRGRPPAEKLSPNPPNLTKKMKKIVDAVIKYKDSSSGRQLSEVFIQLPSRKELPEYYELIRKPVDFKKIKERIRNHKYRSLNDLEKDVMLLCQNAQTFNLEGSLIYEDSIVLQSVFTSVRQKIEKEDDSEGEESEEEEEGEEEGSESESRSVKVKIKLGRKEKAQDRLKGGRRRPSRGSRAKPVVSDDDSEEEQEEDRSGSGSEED
UniProt P20813: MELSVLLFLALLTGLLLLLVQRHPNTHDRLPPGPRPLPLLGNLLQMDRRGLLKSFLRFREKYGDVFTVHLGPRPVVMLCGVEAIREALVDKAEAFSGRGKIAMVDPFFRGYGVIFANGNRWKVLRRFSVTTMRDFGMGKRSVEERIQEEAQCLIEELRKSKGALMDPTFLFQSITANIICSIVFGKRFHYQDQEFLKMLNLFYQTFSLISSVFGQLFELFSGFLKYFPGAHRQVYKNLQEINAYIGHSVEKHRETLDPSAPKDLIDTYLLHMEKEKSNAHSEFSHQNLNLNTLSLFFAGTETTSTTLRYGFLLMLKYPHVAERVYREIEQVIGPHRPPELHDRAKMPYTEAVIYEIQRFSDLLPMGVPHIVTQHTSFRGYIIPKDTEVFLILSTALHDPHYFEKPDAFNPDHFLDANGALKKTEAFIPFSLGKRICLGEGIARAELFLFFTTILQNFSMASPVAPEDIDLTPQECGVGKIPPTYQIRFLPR

Tests used:
[1] = target: T1, BCRP (Homo sapiens, UniProt Q9UNQ0); assay: Bidirectional transport in MDCK-II cells expressing BCRP; format: in vitro ADME
T1 construct: expressed in transfected cells; host or cells: MDCK-II

[2] = target: T2, P-gp (Homo sapiens, UniProt P08183); assay: Bidirectional transport in MDCK-II cells expressing P-gp; format: in vitro ADME
T2 construct: expressed in transfected cells; host or cells: MDCK-II

[3] = Bidirectional transport in MDCK control cells (passive permeability); format: in vitro ADME; conditions: dog, read-out: ER (efflux ratio), in control cells; for efflux ratio at 1 μM: 1 μM compound of formula (I); for efflux ratio at 10 μM: 10 μM compound of formula (I); for efflux ratio at 50 μM: 50 μM compound of formula (I)
[4] = tested on: CYP3A4 mRNA; assay: CYP mRNA level (qRT-PCR) in cultured human hepatocytes, CYP3A4; format: in vitro ADME; conditions: for mRNA Fold Change Relative to the Vehicle Control: 72 hours, mean ± SD of three donors; for mRNA Fold Change Relative to DMSO Control ± SD: 0.05 μM
[5] = tested on: CYP2C8 mRNA; assay: CYP mRNA level in cultured human hepatocytes, CYP2C8; format: in vitro ADME; conditions: 72 hours, mean ± SD of three donors
[6] = tested on: CYP2C19 mRNA; assay: CYP mRNA level in cultured human hepatocytes, CYP2C19; format: in vitro ADME; conditions: 72 hours, mean ± SD of three donors
[7] = tested on: CYP1A2 enzyme activity; assay: CYP enzyme activity in cultured human hepatocytes, CYP1A2; format: in vitro ADME; conditions: 72 hours, mean ± SD of three donors
[8] = tested on: CYP2B6 activity; assay: CYP enzyme activity in cultured human hepatocytes, CYP2B6; format: in vitro ADME; conditions: 72 hours, mean ± SD of three donors
[9] = tested on: CYP3A activity; assay: CYP enzyme activity in cultured human hepatocytes, CYP3A4; format: in vitro ADME; conditions: 72 hours, mean ± SD of three donors
[10] = tested on: CYP2C9 mRNA; conditions: 72 hours, mean ± SD of three donors
[11] = target: BRG1 (Homo sapiens, UniProt P51532); assay: biochemical
[12] = target: CYP2B6 (Homo sapiens, UniProt P20813); assay: Depletion by recombinant CYP enzyme, CYP2B6; format: in vitro ADME; design: from tissue; host or cells: pooled human liver microsomes; conditions: recombinant 2B6; 1 μM
[13] = tested on: CYP1A2 mRNA; assay: CYP mRNA level (qRT-PCR) in cultured human hepatocytes, CYP1A2; conditions: for mRNA Fold Change Relative to the Vehicle Control: 72 hours, mean ± SD of three donors; for mRNA Fold Change Relative to DMSO Control ± SD: 0.05 μM
[14] = tested on: CYP2B6 mRNA; assay: CYP mRNA level (qRT-PCR) in cultured human hepatocytes, CYP2B6; conditions: for mRNA Fold Change Relative to the Vehicle Control: 72 hours, mean ± SD of three donors; for mRNA Fold Change Relative to DMSO Control ± SD: 0.05 μM

Q: For `COC[C@H](NC(=O)c1ccn(S(C)(=O)=O)c1)C(=O)Nc1nc(-c2cccc(N3C[C@@H](C)O[C@@H](C)C3)n2)cs1` [compound of formula (I), N-((S)-1-((4-(6-(cis-2,6-dimethylmorpholino)pyridin-2-yl)thiazol-2-yl)amino)-3-methoxy-1-oxopropan-2-yl)-1-(methylsulfonyl)-1H-pyrrole-3-carboxamide], which “ER (efflux ratio), in transporter cells” value ([1]; 1 μM compound of formula (I)) is on record?
A: 3.95

Q: And the efflux ratio at 1 μM ([1]; human, 1 μM compound of formula (I), read-out: ER (efflux ratio), in transporter cells)?
A: 4

Q: What about the efflux ratio at 10 μM ([1]; human, 10 μM compound of formula (I), read-out: ER (efflux ratio), in transporter cells) of the same compound?
A: 1.53

Q: And the efflux ratio at 50 μM ([1]; human, 50 μM compound of formula (I), read-out: ER (efflux ratio), in transporter cells)?
A: 0.829

Q: And the “ER (efflux ratio), in transporter cells” value ([2]; P-gp, 1 μM compound of formula (I))?
A: 15.8

Q: And the efflux ratio at 10 μM ([2]; human, MDCK-MDR1, P-gp, 10 μM compound of formula (I), read-out: ER (efflux ratio), in transporter cells)?
A: 11.5

Q: What about the efflux ratio at 50 μM ([2]; human, MDCK-MDR1, P-gp, 50 μM compound of formula (I), read-out: ER (efflux ratio), in transporter cells) of the same compound?
A: 1.81

Q: What about the efflux ratio at 1 μM ([2]; human, MDCK-MDR1, P-gp, 1 μM compound of formula (I), read-out: ER (efflux ratio), in transporter cells) of the same compound?
A: 16

Q: And the Papp A→B at 1 μM ([2]; human, MDCK-MDR1, P-gp, 1 μM compound of formula (I), read-out: Papp A→B, in transporter cells)?
A: 1.71 ×10⁻⁶ cm/s

Q: And the efflux ratio at 1 μM ([3]; BCRP assay)?
A: 0.701

Q: What about the efflux ratio at 10 μM ([3]; BCRP assay) of the same compound?
A: 0.823

Q: And the efflux ratio at 50 μM ([3]; BCRP assay)?
A: 0.903

Q: And the efflux ratio at 1 μM ([3]; P-gp assay)?
A: 0.731

Q: And the efflux ratio at 10 μM ([3]; P-gp assay)?
A: 0.761

Q: And the efflux ratio at 50 μM ([3]; P-gp assay)?
A: 0.728

Q: And the “mRNA Fold Change Relative to the Vehicle Control” value ([4]; 0.3 nM)?
A: 0.87 ± 0.10

Q: What about the “mRNA Fold Change Relative to the Vehicle Control” value ([4]; 1 nM) of the same compound?
A: 0.35 ± 0.05

Q: What about the “mRNA Fold Change Relative to the Vehicle Control” value ([4]; 3 nM) of the same compound?
A: 0.09 ± 0.05

Q: What about the “mRNA Fold Change Relative to the Vehicle Control” value ([4]; 10 nM) of the same compound?
A: 0.03 ± 0.01

Q: And the “mRNA Fold Change Relative to the Vehicle Control” value ([4]; 30 nM)?
A: 0.03 ± 0.00

Q: What about the “mRNA Fold Change Relative to DMSO Control ± SD” value ([4]; donor HC5-27, 72 hours) of the same compound?
A: 0.00233 ± 0.00153

Q: What about the “mRNA Fold Change Relative to DMSO Control ± SD” value ([4]; donor HC10-23, 72 hours) of the same compound?
A: 0.001 ± 0.000

Q: And the “mRNA Fold Change Relative to DMSO Control ± SD” value ([4]; donor HC10-50, 72 hours)?
A: 0.006 ± 0.001

Q: And the “mRNA Fold Change Relative to the Vehicle Control” value ([4]; 50 nM)?
A: 0.02 ± 0.00

Q: And the “mRNA Fold Change Relative to the Vehicle Control” value ([5]; 1 nM)?
A: 0.92 ± 0.17

Q: What about the “mRNA Fold Change Relative to the Vehicle Control” value ([5]; 3 nM) of the same compound?
A: 0.78 ± 0.19

Q: What about the “mRNA Fold Change Relative to the Vehicle Control” value ([5]; 30 nM) of the same compound?
A: 0.29 ± 0.06

Q: And the “mRNA Fold Change Relative to the Vehicle Control” value ([5]; 50 nM)?
A: 0.28 ± 0.13

Q: What about the “mRNA Fold Change Relative to the Vehicle Control” value ([6]; 0.3 nM) of the same compound?
A: 1.11 ± 0.03

Q: What about the “mRNA Fold Change Relative to the Vehicle Control” value ([6]; 1 nM) of the same compound?
A: 1.14 ± 0.25

Q: And the “mRNA Fold Change Relative to the Vehicle Control” value ([6]; 3 nM)?
A: 1.41 ± 0.52

Q: And the “mRNA Fold Change Relative to the Vehicle Control” value ([6]; 30 nM)?
A: 1.10 ± 0.19

Q: What about the “mRNA Fold Change Relative to the Vehicle Control” value ([6]; 50 nM) of the same compound?
A: 0.98 ± 0.32

Q: What about the “Enzyme Activity Fold Change Relative to the Vehicle Control” value ([7]; 0.3 nM) of the same compound?
A: 0.87 ± 0.08

Q: And the “Enzyme Activity Fold Change Relative to the Vehicle Control” value ([7]; 1 nM)?
A: 0.81 ± 0.07

Q: And the “Enzyme Activity Fold Change Relative to the Vehicle Control” value ([7]; 3 nM)?
A: 0.92 ± 0.42

Q: What about the “Enzyme Activity Fold Change Relative to the Vehicle Control” value ([7]; 10 nM) of the same compound?
A: 0.35 ± 0.16

Q: What about the “Enzyme Activity Fold Change Relative to the Vehicle Control” value ([7]; 30 nM) of the same compound?
A: 0.24 ± 0.12

Q: And the “Enzyme Activity Fold Change Relative to the Vehicle Control” value ([7]; 50 nM)?
A: 0.21 ± 0.04

Q: What about the “Enzyme Activity Fold Change Relative to the Vehicle Control” value ([8]; 0.3 nM) of the same compound?
A: 1.12 ± 0.09

Q: What about the “Enzyme Activity Fold Change Relative to the Vehicle Control” value ([8]; 1 nM) of the same compound?
A: 1.08 ± 0.06

Q: What about the “Enzyme Activity Fold Change Relative to the Vehicle Control” value ([8]; 3 nM) of the same compound?
A: 1.17 ± 0.02

Q: And the “Enzyme Activity Fold Change Relative to the Vehicle Control” value ([8]; 10 nM)?
A: 1.09 ± 0.15

Q: And the “Enzyme Activity Fold Change Relative to the Vehicle Control” value ([8]; 30 nM)?
A: 0.94 ± 0.08

Q: What about the “Enzyme Activity Fold Change Relative to the Vehicle Control” value ([8]; 50 nM) of the same compound?
A: 0.80 ± 0.15

Q: What about the “Enzyme Activity Fold Change Relative to the Vehicle Control” value ([9]; 1 nM) of the same compound?
A: 0.86 ± 0.19

Q: And the “Enzyme Activity Fold Change Relative to the Vehicle Control” value ([9]; 3 nM)?
A: 0.73 ± 0.18

Q: And the “Enzyme Activity Fold Change Relative to the Vehicle Control” value ([9]; 10 nM)?
A: 0.68 ± 0.16

Q: And the “Enzyme Activity Fold Change Relative to the Vehicle Control” value ([9]; 30 nM)?
A: 0.80 ± 0.28

Q: And the “Enzyme Activity Fold Change Relative to the Vehicle Control” value ([9]; 50 nM)?
A: 0.90 ± 0.28

Q: What about the “mRNA Fold Change Relative to the Vehicle Control” value ([10]; 0.3 nM) of the same compound?
A: 1.04 ± 0.22

Q: What about the “mRNA Fold Change Relative to the Vehicle Control” value ([10]; 1 nM) of the same compound?
A: 1.03 ± 0.17

Q: What about the “mRNA Fold Change Relative to the Vehicle Control” value ([10]; 3 nM) of the same compound?
A: 0.93 ± 0.36

Q: What about the “mRNA Fold Change Relative to the Vehicle Control” value ([10]; 10 nM) of the same compound?
A: 0.42 ± 0.07

Q: And the “mRNA Fold Change Relative to the Vehicle Control” value ([10]; 30 nM)?
A: 0.30 ± 0.05

Q: And the “mRNA Fold Change Relative to the Vehicle Control” value ([10]; 50 nM)?
A: 0.20 ± 0.03

Q: What about the IC50 [11] of the same compound?
A: 6.5 nM

Q: What about the “% Remaining of Compound of Formula (I)” value [12] of the same compound?
A: 104%

Q: What about the “mRNA Fold Change Relative to the Vehicle Control” value ([13]; 0.3 nM) of the same compound?
A: 1.12 ± 0.21

Q: And the “mRNA Fold Change Relative to the Vehicle Control” value ([13]; 1 nM)?
A: 0.95 ± 0.09

Q: What about the “mRNA Fold Change Relative to the Vehicle Control” value ([13]; 3 nM) of the same compound?
A: 0.68 ± 0.05

Q: And the “mRNA Fold Change Relative to the Vehicle Control” value ([13]; 10 nM)?
A: 0.41 ± 0.08

Q: And the “mRNA Fold Change Relative to the Vehicle Control” value ([13]; 30 nM)?
A: 0.26 ± 0.05

Q: And the “mRNA Fold Change Relative to DMSO Control ± SD” value ([13]; donor HC5-27, 72 hours)?
A: 0.044 ± 0.0036

Q: And the “mRNA Fold Change Relative to DMSO Control ± SD” value ([13]; donor HC10-23, 72 hours)?
A: 0.0703 ± 0.0064

Q: And the “mRNA Fold Change Relative to DMSO Control ± SD” value ([13]; donor HC10-50, 72 hours)?
A: 0.0567 ± 0.0025

Q: What about the “mRNA Fold Change Relative to the Vehicle Control” value ([13]; 50 nM) of the same compound?
A: 0.21 ± 0.03

Q: What about the “mRNA Fold Change Relative to the Vehicle Control” value ([14]; 0.3 nM) of the same compound?
A: 1.78 ± 0.24

Q: And the “mRNA Fold Change Relative to the Vehicle Control” value ([14]; 1 nM)?
A: 1.52 ± 0.47

Q: And the “mRNA Fold Change Relative to the Vehicle Control” value ([14]; 3 nM)?
A: 1.46 ± 0.11

Q: And the “mRNA Fold Change Relative to the Vehicle Control” value ([14]; 10 nM)?
A: 1.71 ± 0.40

Q: And the “mRNA Fold Change Relative to the Vehicle Control” value ([14]; 30 nM)?
A: 1.20 ± 0.08

Q: And the “mRNA Fold Change Relative to DMSO Control ± SD” value ([14]; donor HC5-27, 72 hours)?
A: 0.381 ± 0.029

Q: What about the “mRNA Fold Change Relative to DMSO Control ± SD” value ([14]; donor HC10-23, 72 hours) of the same compound?
A: 1.29 ± 0.21

Q: And the “mRNA Fold Change Relative to DMSO Control ± SD” value ([14]; donor HC10-50, 72 hours)?
A: 0.877 ± 0.127

Q: What about the “mRNA Fold Change Relative to the Vehicle Control” value ([14]; 50 nM) of the same compound?
A: 0.97 ± 0.03

Where two headings read alike, the source gives them in different places.
